Experimental data taken from publication PMC8187479, “Sugar phosphate activation of the stress sensor eIF2B” (Nature Communications, 2021).

Target: T1, eIF2Bα (Homo sapiens, UniProt Q14232)
T1 construct: made in house; host or cells: E. coli BL21(DE3)
T1 sequence (Q14232 1-305): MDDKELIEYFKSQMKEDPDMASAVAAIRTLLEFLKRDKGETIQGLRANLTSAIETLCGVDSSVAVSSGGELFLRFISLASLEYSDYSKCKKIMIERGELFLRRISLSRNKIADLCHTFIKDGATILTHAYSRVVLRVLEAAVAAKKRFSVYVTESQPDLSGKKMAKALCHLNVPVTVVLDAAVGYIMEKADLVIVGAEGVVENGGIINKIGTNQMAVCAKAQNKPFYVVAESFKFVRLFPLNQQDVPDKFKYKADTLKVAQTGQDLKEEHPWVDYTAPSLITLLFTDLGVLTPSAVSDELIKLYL
Assay: MIDAS (mass spectrometry integrated with equilibrium dialysis) metabolite binding screen
Settings: sheet eIF2Ba, metabolites screened in pools 1-4, p-value and q-value given

O=C(O)CCCC[C@@H]1SC[C@@H]2NC(=O)N[C@@H]21 [Biotin]
log2(corrected fold change): 0.08758
